## AlphaSeq binding of Ab-14 light chain variants to a spike HR2 peptide

All variants were tested on one target, the spike HR2 peptide PDVDLGDISGINAS (SARS-CoV-2).

Parent: Ab-14, a human scFv built as VH, three GGGGS repeats, VL. Only the CDRs of the light chain vary.
VH: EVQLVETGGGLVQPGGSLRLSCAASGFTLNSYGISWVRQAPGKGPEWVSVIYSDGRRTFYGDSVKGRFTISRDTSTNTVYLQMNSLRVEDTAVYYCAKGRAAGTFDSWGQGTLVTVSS
VL: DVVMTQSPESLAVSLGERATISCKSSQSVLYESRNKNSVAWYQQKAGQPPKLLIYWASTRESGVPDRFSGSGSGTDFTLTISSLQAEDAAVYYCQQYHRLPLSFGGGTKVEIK

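Phage display of a naive human antibody library on the peptide gave the parent. Library AAYL50 holds single substitutions and randomly drawn double and triple substitutions in the CDRs. The scFvs were displayed on barcoded MATa yeast, the peptide on MATalpha yeast. Binding brings cells together so that they mate, and sequencing counts the barcode pairs among the diploids. Each replicate has its own calibration line, from reference interactions of the BCL2 family. Mating was done three times.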

Sequences are complete VL domains.
The read-out is the apparent dissociation constant on a log10 scale (nM): the lower, the stronger.
Averages over replicates are reported, and they cover detected replicates only.
A pair that was not seen in any replicate is written "nd"; this usually means weak binding, but a binder can also be missed.
The list is sorted by this average, lowest first, undetected variants last.
Empty control strains, which show no peptide, gave a signal in 18% of pairings with library AAYL50; the median was 4.19 and 95% of these signals were weaker than 2.99. No background was subtracted. For each scFv, signals with the empty controls are counted beside the result.
Parent in this assay: reference entry 0.65, copy in this library 1.68.

Variant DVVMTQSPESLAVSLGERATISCKSSQSVLYESRNKNSVAWYQQKAGQPPKLLIYWGNTRESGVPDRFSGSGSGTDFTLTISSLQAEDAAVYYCQQYIRLPLSFGGGTKVEIK showed 0.31 (3 of 3 replicates; controls 2 of 9).
Variant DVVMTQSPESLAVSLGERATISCKSSQSRLYESRNKNSVAWYQQKAGQPPKLLIYQCSTRESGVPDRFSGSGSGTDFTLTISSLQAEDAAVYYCQQYHRLPLSFGGGTKVEIK showed 0.62 (3 of 3 replicates; controls 1 of 9).
Variant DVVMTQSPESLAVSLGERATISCKSSQSVLEESDCKNSVAWYQQKAGQPPKLLIYWASTRESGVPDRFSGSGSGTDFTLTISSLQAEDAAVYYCQQYHRLPLSFGGGTKVEIK showed 1.06 (3 of 3 replicates; controls 4 of 9).
Variant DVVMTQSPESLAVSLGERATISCKSNQSVLYESRNKNSVAWYQQKAGQPPKLLIYWARTRESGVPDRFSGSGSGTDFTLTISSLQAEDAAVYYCQQYFRLPLSFGGGTKVEIK showed 1.09 (3 of 3 replicates; controls 2 of 9).
Variant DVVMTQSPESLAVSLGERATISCKSSQSVDKESRNCNSVAWYQQKAGQPPKLLIYWASTRESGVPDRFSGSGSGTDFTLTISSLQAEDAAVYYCQQYHRLPLSFGGGTKVEIK showed 1.13 (3 of 3 replicates; controls 0 of 9).
Variant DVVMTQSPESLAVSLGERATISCKSSQSCLYESRNKNSVAWYQQKAGQPPKLLIYWANTRESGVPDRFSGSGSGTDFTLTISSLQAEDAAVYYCQQYHVLPLSFGGGTKVEIK showed 1.76 (3 of 3 replicates; controls 3 of 9).
Variant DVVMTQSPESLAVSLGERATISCKGSQSVLYEQRNKNSVAWYQQKAGQPPKLLIYWASTLESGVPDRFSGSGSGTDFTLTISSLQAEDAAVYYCQQYHRLPLSFGGGTKVEIK showed 2.11 (3 of 3 replicates; controls 1 of 9).
Variant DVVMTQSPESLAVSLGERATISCKSSQHVLYESRNKNSVAWYQQKAGQPPKLLIYWASTRESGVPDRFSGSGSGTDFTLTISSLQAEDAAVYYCQQNHRLALSFGGGTKVEIK showed 2.27 (3 of 3 replicates; controls 2 of 9).
Variant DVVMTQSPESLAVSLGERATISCKSSFSVLYESRNKNSVAWYQQKAGQPPKLLIYWASTRESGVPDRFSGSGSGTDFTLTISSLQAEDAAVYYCQQYHRLPLKFGGGTKVEIK showed 2.53 (3 of 3 replicates; controls 4 of 9).
Variant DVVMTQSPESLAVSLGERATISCKSSVDVLYESRNKNSVAWYQQKAGQPPKLLIYWASWRESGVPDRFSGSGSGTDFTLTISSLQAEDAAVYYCQQYHRLPLSFGGGTKVEIK showed 2.91 (3 of 3 replicates; controls 3 of 9).
Variant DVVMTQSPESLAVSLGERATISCKSSQSVLSESRNKNSVAWYQQKAGQPPKLLIYWASTRFSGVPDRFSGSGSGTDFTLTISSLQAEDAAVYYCQFYHRLPLSFGGGTKVEIK showed 3.18 (3 of 3 replicates; controls 4 of 9).
Variant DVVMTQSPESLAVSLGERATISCASSQSVLYESRNKNSVAWYQQKAGQPPKLLIYWASTHESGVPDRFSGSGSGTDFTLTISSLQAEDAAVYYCQQYHRLPNSFGGGTKVEIK showed 3.56 (1 of 3 replicates; controls 1 of 9).
Variant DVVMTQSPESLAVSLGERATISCKSSFSVLYESRNKNSVAWYQQKAGQPPKLLIYWASTRESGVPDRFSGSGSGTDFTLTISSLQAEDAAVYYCLQYHHLPLSFGGGTKVEIK showed 4.14 (2 of 3 replicates; controls 1 of 9).
Variant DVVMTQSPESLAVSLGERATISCKSSQSVLYESRSKNSVAWYQQKAGQPPKLLIYWASTREQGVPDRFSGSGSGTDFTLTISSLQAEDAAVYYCQQYHRKPLSFGGGTKVEIK showed 4.19 (1 of 3 replicates; controls 2 of 9).
Variant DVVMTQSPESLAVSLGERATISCKSSQSVLYESRNRNSVAWYQQKAGQPPKLLIYWPVTRESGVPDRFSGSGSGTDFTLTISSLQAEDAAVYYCQQYHRLPLSFGGGTKVEIK showed 4.42 (1 of 3 replicates; controls 1 of 9).
Variant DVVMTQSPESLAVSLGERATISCKSSQSVLYESRNKNSVHWYQQKAGQPPKLLIYWDSTRESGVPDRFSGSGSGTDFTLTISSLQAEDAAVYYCNQYHRLPLSFGGGTKVEIK showed 5.14 (1 of 3 replicates; controls 1 of 9).
Variant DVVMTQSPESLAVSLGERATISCKSSQSVLYESRNKCSGAWYQQKAGQPPKLLIYWASTRQSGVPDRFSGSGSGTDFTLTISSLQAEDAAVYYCQQYHRLPLSFGGGTKVEIK showed 5.91 (1 of 3 replicates; controls 5 of 9).
Variant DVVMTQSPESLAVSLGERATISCKSAQSVLYESRNKNSVAWYQQKAGQPPKLLIYRAYTRESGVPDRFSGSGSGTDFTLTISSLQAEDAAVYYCQQYHRLPLSFGGGTKVEIK showed nd (0 of 3 replicates; controls 0 of 9).
Variant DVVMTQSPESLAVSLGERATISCKSSQSVLYDSRNKNSVYWYQQKAGQPPKLLIYWASTRESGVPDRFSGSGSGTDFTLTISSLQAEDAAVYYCQQYHRLFLSFGGGTKVEIK showed nd (0 of 3 replicates; controls 0 of 9).
Variant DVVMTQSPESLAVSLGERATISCKSSQSVLYESRNKNSVAWYQQKAGQPPKLLIYKASDRESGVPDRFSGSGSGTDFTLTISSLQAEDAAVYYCIQYHRLPLSFGGGTKVEIK showed nd (0 of 3 replicates; controls 2 of 9).
Variant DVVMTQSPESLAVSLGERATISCKSSQSVLYESFNKNCVAWYQQKAGQPPKLLIYWASTRESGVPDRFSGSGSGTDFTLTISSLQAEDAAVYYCQQYHRLPYSFGGGTKVEIK showed nd (0 of 3 replicates; controls 0 of 9).
Variant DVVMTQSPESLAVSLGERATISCKSSQSVLYESRVKNSVAWYQQKAGQPPKLLIYPASTRESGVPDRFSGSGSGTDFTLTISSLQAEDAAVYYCQQYHRLKLSFGGGTKVEIK showed nd (0 of 3 replicates; controls 0 of 9).
Variant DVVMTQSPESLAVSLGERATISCKSSQSVLYESRNKNSVAWYQQKAGQPPKLLIYWASTRESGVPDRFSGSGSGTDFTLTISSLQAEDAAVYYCSLYHHLPLSFGGGTKVEIK showed nd (0 of 3 replicates; controls 1 of 9).

Picked from the list: the 3 lowest averages where every replicate gave a value.

For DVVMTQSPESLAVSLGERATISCKSSQSVLYESRNKNSVAWYQQKAGQPPKLLIYWGNTRESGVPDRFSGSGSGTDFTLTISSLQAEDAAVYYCQQYIRLPLSFGGGTKVEIK, the assay gave 0.31 (3 of 3 replicates; controls 2 of 9).
For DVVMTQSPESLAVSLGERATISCKSSQSRLYESRNKNSVAWYQQKAGQPPKLLIYQCSTRESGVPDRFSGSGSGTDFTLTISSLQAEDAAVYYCQQYHRLPLSFGGGTKVEIK, the assay gave 0.62 (3 of 3 replicates; controls 1 of 9).
For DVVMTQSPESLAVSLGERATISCKSSQSVLEESDCKNSVAWYQQKAGQPPKLLIYWASTRESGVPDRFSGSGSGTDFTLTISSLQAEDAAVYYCQQYHRLPLSFGGGTKVEIK, the assay gave 1.06 (3 of 3 replicates; controls 4 of 9).

Data: MIT Lincoln Laboratory AlphaSeq set, Engelhart et al. 2022, doi:10.1038/s41597-022-01779-4, as distributed in FLAb.